The values below come from patent publication US7642280B2, “Inhibitors of acyl glucosaminyl inositol amidase and methods of use” (The Regents of the University of California, priority 2001, dated 2010).

Protein sequences, listed by entry. Tags and fused reporters are not part of them.
UniProt A0R2W9, whole entry: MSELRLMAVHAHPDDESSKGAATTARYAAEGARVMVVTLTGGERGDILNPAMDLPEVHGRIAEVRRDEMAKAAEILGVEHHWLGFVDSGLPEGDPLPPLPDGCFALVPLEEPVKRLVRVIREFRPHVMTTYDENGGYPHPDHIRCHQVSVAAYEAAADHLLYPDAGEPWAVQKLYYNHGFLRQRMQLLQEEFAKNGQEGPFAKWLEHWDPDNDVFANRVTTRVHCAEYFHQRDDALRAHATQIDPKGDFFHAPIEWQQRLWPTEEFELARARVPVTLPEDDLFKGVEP

The target of test [1] is mycothiol S-conjugate amidase (MCA) (Mycolicibacterium smegmatis, UniProt A0R2W9). Briefly: Fluorescence-detected HPLC assay of MCA cleavage of MSmB (50 μM MSmB as substrate), Examples 1 and 3.
Test [2] concerns the target Mycobacterium smegmatis mycothiol-S-conjugate amidase (MCA) (Mycolicibacterium smegmatis, UniProt A0R2W9). Kind of test: Fluorescence-based HPLC IC50 assay, wild type M. smegmatis MCA with natural MSmB. The conditions noted are these: read-out: IC50 M. smeg; wild type M. smegmatis MCA approx. 20 nM, 30 μM natural MSmB, 20 min, 31° C.

Where two headings read alike, the source gives them in different places.

For `NCCCOc1c(Br)cc(CC(=NO)C(=O)NCCc2cnc(N)[nH]2)cc1Br`, the IC50 in test [1] (read-out: concentration that inhibited mycothiol S-conjugate amidase by 50%) amounted to 3 µM.

For the compound `CN(C)CCCOc1c(Br)cc(CCN(C)C)cc1Br`, in test [1] (absence of cleavage product AcCys-bimane), the “inhibitory activity against MCA (in words)” value is “ineffective”. For the same compound, the IC50 in test [1] (read-out: IC50 amidase inhibition (Example 3, FIG. 6)) is above 1000 µM.

As for `N=C(N)NCCCCNC(=O)C(Cc1cc(Br)c(OCCCN)c(Br)c1)=NO`, in test [2], the IC50 was found to be 3 µM.
